Tested on: 3T3-L1 cells
Test: Glucose transport assay, uptake of 2-deoxy-D-[3H]glucose in differentiated 3T3-L1 cells
Type: cell-based, mouse
Conditions: insulin treatment alone (100 nM)
Method: The effect of one of the 15-keto prostaglandin-Δ^13-reductase inhibitors, i.e., 3,3′-methylene-bis(4-hydroxycoumarin), on insulin sensitivity was examined as follows. 3T3-L1 cells were induced to differentiate in the same manner as described above. A glucose transport assay was performed by measuring uptake of 2-deoxy-D-[3H]glucose as described by Fingar et al. See Fingar et al., Endocrinology 134:728-735. 1.67 μM of the inhibitor or 45 nM of a PPAR agonist, i.e., AVANDIA, was added to the cells. 10 μM cytochalasin-B was used to measure background glucose uptake levels. 100 nM of insulin was used to stimulate glucose uptake. Insulin treatment alone in differentiated 3T3-L1 cells increased glucose uptake by 20 folds. In the presence of this 15-keto prostaglandin-Δ^13-reductase inhibitor, glucose uptake was increased by 30 folds.

**Q.** With Insulin [reference compound] as the substance, how does the “increase of glucose uptake” value read?
**A.** Its value is 20 folds.

Reference: patent US20060040876A1, “Modulation of peroxisome proliferator-activated receptors” (priority 2004, published 2006)
